Kd data for one substance are collected here from PMC4769084, “Aminoglycoside binding and catalysis specificity of aminoglycoside 2″-phosphotransferase IVa: A thermodynamic, structural and kinetic study” (Biochimica et Biophysica Acta, 2016).

By UniProt entry, the sequences of proteins in these tests, tags left out.
UniProt O68183, entry or part of it: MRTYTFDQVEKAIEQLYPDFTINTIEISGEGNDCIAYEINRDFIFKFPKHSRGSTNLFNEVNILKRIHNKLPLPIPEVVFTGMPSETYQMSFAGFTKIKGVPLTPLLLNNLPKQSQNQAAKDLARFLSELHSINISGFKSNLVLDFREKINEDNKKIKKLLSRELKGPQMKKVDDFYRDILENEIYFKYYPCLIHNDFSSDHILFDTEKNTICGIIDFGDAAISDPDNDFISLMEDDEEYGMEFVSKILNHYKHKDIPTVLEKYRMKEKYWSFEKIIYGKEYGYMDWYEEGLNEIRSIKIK

In this assay the target is APH(2″)-IVa (Enterococcus casseliflavus, UniProt O68183). In words: Isothermal titration calorimetry of aminoglycoside binding. To be noted: ITC. As for the experimental part:
The enzyme was extensively dialyzed against buffer containing 50 mM Tris–HCl at pH 7.5, 40 mM KCl, 1 mM MgCl2 and ligand solutions were prepared at 5 mM in the final dialysate with readjusting pH to 7.5. The enzyme was used at a final concentration of 150 μM. ITC experiments were carried out at 25 °C in a VP-ITC calorimeter (MicroCal, GE Healthcare). Titrations consisted of 40 injections of 5 μL of ligand every 300 s. The cell stirring speed was 300 rpm. To obtain reliable dissociation constants, the c-value, a unitless parameter obtained by the multiplication of the association constant and the total concentration of ligand binding sites, was kept between 1.8 and 100 for all titrations. Control runs were performed by titrating ligands to buffer, and the resulting background signal was subtracted from the corresponding experimental data. Experiments were carried out at 1 mM free Mg^2 +.
Binding and thermodynamic parameters Ka (association constant), ΔH (enthalpy change) and stoichiometry were obtained by nonlinear least-squares fitting of experimental data using a single-site binding model of the Origin software package (version 5.0) provided with the instrument. The free energy of binding (ΔG) and entropy change at 25 °C (ΔS) were obtained using the following equations:(1) ΔG=–RTlnKa (2) ΔG=ΔH–TΔS
The experiments were performed in triplicate (except with G418 and kanamycin B, in duplicate) and the error values given in the tables are standard deviations.

Kanamycin A: the Kd by setting is: (25 °C, pH 7.5, 1 mM free Mg2+, absence of nucleotide, calculated from ITC-derived Ka, mean ± SD) 79.9 ± 6.2 µM; (25 °C, pH 7.5, 1 mM free Mg2+, absence of nucleotide, calculated from ITC-derived Ka, mean ± SD, listed as kanamycin A) 80 ± 6 µM; (in the presence of 870 μM MgADP) 87 ± 8 µM; (in the presence of 1 mM MgAMP-PNP) 103 ± 12 µM.

In general, Kd refers to the constant that tells how readily two partners part at equilibrium.
